Data published in patent US20110033516A1, “METHODS AND COMPOSITIONS FOR BONE HEALING BY PERIOSTIN” (Medical University of South Carolina, priority 2009, published 2011).

Tests used:
[1] = test system: rat osteoblast cells; test: Standard wounding / scratch migration assay; format: cell-based
Procedure: FIG. 10 Periostin promotes osteoblast cell migration. […] Tissue culture dishes were coated with either collagen, or collagen with titrating amounts of periostin. Cells were plated and allowed to adhere for 24 hours. A standard “wounding” or “scratch assay” was performed and measurements of cell migration into the scratch area were obtained.
The ability of periostin to promote migration of osteoblast cells in culture was ascertained utilizing a standard “wounding” assay. For this, a monolayer of rat osteoblast cells was plated on either plastic, collagen or collagen plus titrating amounts of periostin. A small scratch was made (with a P200 tip) through the middle of the monolayer and the cells were allowed to migrate into the “wounded” area for up to 48 hours.

[2] = test system: primary fibroblasts; test: 3D collagen gel migration assay with hanging drop aggregates; format: cell-based; details: aggregates of 50,000 cells/20 μl on collagen I hydrogels (1.5 mg/ml), exogenous factors
Procedure: FIG. 11 Periostin promotes migration of primary fibroblasts in 3D collagen gel assays. Hanging drop aggregates (50,000 cells/20 μl) were placed on top of collagen I hydrogels (1.5 mg/ml) and assayed for their ability to respond to exogenous factors (TGFβ3, BMP2, and periostin). […] Pictures above the graph lines show representative images of the stimulated cultures with the cell migratory boundaries outlined.
The 3-D migration and invasion assay will use the same cells but aggregate them using a hanging drop method overnight. […] The number of cells that have migrated out from the aggregate and the distance migrated on the top of the gel are the first order parameters of migration.

B1: BMP-2: bone morphogenic protein, member of the TGF-β superfamily of polypeptides (protein, UniProt P12643 283-396, looked up)
Bone morphogenetic protein 2: QAKHKQRKRLKSSCKRHPLYVDFSDVGWNDWIVAPPGYHAFYCHGECPFPLADHLNSTNHAIVQTLVNSVNSKIPKACCVPTELSAISMLYLDENEKVVLKNYQDMVVEGCGCR
cell migration into the scratch area ([1]; dishes coated with plastic, collagen, or collagen plus titrating amounts of periostin, BMP-2 titrated, up to 48 hours): decrease in migration compared to periostin
proliferation ([1]; scratch assays in the presence of titrating amounts of BMP-2): significant increase
fold-change in area of migration [2]: promoted migration
